Test system: U2OS VEGF mRNA induction, RT-PCR
Assay: activators raising VEGF transcript levels – cell-based, U2OS, RT-PCR, dry powder, set 2, orthogonal assay for HIF pathway activator project, dose response (AID 493238)
Procedure, shortened: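 Material: U2OS human osteosarcoma cells | Input: 2,000 U2OS cells per well | Doses: Compound dose series, pinned in duplicate | Incubation: 24 h pre-growth at 37 °C, 24 h compound treatment | Technique: Duplex TaqMan RT-qPCR (FAM VEGF-A, VIC beta-actin), 40 cycles, post-lysis | Controls: DMSO negative control | Replicates: Duplicate compound pinning per dose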

`O=c1[nH]c2ccccc2n1C1CCN(Cc2ccc(O)c3ncccc23)CC1` was tested, and the AC40 was 0.892 µM.
